{
  "source": "patent US20260216238A1",
  "about": "“TETRATHIOMOLYBDIC ACID FOR USE IN TREATING COPPER METABOLISM-ASSOCIATED DISEASES OR DISORDERS (WILSON DISEASE)” (Alexion Pharmaceuticals, Inc., priority 2023, published 2026)",
  "test_system": "patients with Wilson disease (WD)",
  "settings": "in vivo",
  "data": [
    {"substance": "bis-choline tetrathiomolybdate [TTM]", "values": [
      {"measurement": "Anemia, E", "result": 7},
      {"measurement": "Anemia, N (%)", "result": "6 (4.4)"},
      {"measurement": "Leukopenia, E", "result": 3},
      {"measurement": "Leukopenia, N (%)", "result": "2 (1.5)"},
      {"measurement": "Neutropenia, E", "result": 6},
      {"measurement": "Neutropenia, N (%)", "result": "6 (4.4)"},
      {"measurement": "Neutrophil count decreased, E", "result": 4},
      {"measurement": "Neutrophil count decreased, N (%)", "result": "2 (1.5)"},
      {"measurement": "Thrombocytopenia, E", "result": 2},
      {"measurement": "Thrombocytopenia, N (%)", "result": "1 (0.7)"},
      {"measurement": "participants with Grade 1 hemoglobin", "result": 41.6, "unit": "%"},
      {"measurement": "participants with Grade 1 platelets", "result": 24.1, "unit": "%"},
      {"measurement": "participants with Grade 3 neutrophils", "result": 6.6, "unit": "%"}
    ]}
  ]
}
